Assay results reported in patent publication US20170151256A1, “ANTITUMOR AGENT” (ZERIA PHARMACEUTICAL CO., LTD., priority 2005, published 2017).

What was measured:
Format in all cases: in vivo, mouse
[1] = test system: human gastric cancer cells (MGLVA1); assay: MGLVA1 intraperitoneal lethal model, survival; details: 30 mg/kg oral once daily; day 6 after the administration start; female SCID mice (control 6.7%)
Experimental: 5×10^5 cells of human gastric cancer cells (MGLVA1) were intraperitoneally injected into female SCID mice. After implantation, compound A1 was orally administered to mice at doses of 3 mg/kg and 30 mg/kg once daily. The prolongation of survival time by compound A1 was evaluated because this model using MGLVA1 was lethal model.

[2] = test system: human pancreatic cancer cells (PANC-1); assay: PANC-1 implanted into pancreas, lethal model, survival rate; details: compound A1 100 mg/kg oral once daily from 7 days after implantation; 40 days after administration start (46 days after implantation); female SCID mice (control 46.7%)
Experimental: (§1) A small piece (70 to 80 mg) of human pancreatic cancer cells (PANC-1) was implanted into the pancreas of female SCID mice (15 mice for each group). In a group of mice, from seven days after implantation, compound A1 was orally administered at a dose of 100 mg/kg once daily. In another group of mice, on seven, 10, and 14 days after the implantation, gemcitabine hydrochloride (Gemzar Injection®) as a positive control was intravenously injected at a dose of 100 mg/kg. The prolongation of survival time by compound A1 was evaluated because this model using PANC-1 was lethal model.

[3] = test system: human pancreatic cancer cells (PANC-1); assay: PANC-1 implanted into pancreas, lethal model, survival with gemcitabine combination (Table 1); details: female SCID mice, compound A1 100 mg/kg oral once daily from day 7, GEM 100 mg/kg i.v. days 7, 10, 14
Experimental: as §1, with “after the” for “after”, “after” for “after the”, “Injection®)” for “Injection®) as a positive control”, “administered” for “injected”

calcium (R)-(−)-3-[3-(1-tert-butylcarbonylmethyl-2-oxo-5-cyclohexyl-1,3,4,5-tetrahydro-2H-1,5-benzodiazepin-3-yl)ureido]benzoate [compound A1]
Survival rate [1]: 46.7% | Survival rate [2]: 86.7% | Survival rate at 60 days after initiation of administration (66 days after implantation) ([3]; alone or combined (control 0)): 6.7% | Median survival time ([3]; alone or combined (control 39)): 51 days | Survival rate at 50 days after initiation of administration (56 days after implantation) ([3]; alone or combined (control 40)): 53.3% | Average survival time ([3]; alone or combined (control 43)): 49.5 days | Days of death of the last individual ([3]; alone or combined (control 56)): 61 days
